# Data reported in patent publication US20240285810A1, “DEVELOPMENT OF A NOVEL PET PROBE FOR TARGETED BACTERIAL IMAGING” (published 2024).
# System: E. coli K12
# Assay: myositis infection model imaged with the control probe
substance,measurement,value
^18F-Fluoro-2-Deoxy-D-glucose,signal from the muscle injected with non-pathogenic commensal E. coli K12,lack of a substantial signal
